By IC50 is commonly meant the point on the concentration scale where inhibition reaches its midpoint.

The chains behind the UniProt entries cited, without tags or fusion partners. Residues count along the entry.
UniProt Q09472, 1195-1673 limits assumed: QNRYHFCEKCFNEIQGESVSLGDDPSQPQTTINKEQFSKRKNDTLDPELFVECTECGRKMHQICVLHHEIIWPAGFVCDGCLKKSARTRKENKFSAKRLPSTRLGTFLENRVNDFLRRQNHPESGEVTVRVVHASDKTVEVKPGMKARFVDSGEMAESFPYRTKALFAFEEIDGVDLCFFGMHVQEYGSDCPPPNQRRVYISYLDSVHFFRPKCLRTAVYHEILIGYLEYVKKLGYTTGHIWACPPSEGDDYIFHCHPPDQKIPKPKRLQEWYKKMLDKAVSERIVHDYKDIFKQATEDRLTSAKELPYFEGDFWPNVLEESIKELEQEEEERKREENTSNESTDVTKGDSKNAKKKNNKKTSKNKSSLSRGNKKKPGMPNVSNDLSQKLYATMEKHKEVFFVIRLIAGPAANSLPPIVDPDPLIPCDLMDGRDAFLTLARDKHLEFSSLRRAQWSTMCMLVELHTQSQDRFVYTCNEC

This assay deals with HAT domain of human p300 (Homo sapiens, UniProt Q09472). Description: p300 HAT inhibition assay (3H-Ac-CoA, histone H3 (1-21) peptide). Format: biochemical.

Regarding `CC(C)(C)c1ccc(-c2cc(CNC3CCNCC3)sc2-c2ccc(C(C)(C)C)cc2)cc1`, for the setting “p300 HAT”, the “activity reduction relative to compound 12” value is given as ~ 8 fold. The IC50 (read-out: IC50 against p300 HAT) was 5 µM.

These data come from patent publication US20230167101A1, “NOVEL INHIBITORS OF HISTONE […] P300/CBP FOR CANCER THERAPY” (BAYLOR COLLEGE OF MEDICINE, priority 2020, published 2023).
